According to patent US8686126B2, “HBV drug resistance methods” (priority 2002, dated 2014):

Test system: HBV
Experiment: HBV DNA levels in serum of HBV-infected patient No. 7 (liquid-hybridization assay, Digene)
Type: in vivo, human

**Q.** For “IFN: interferon-alpha, licensed treatment for chronic hepatitis B”, which “HBV DNA level” value (at the end of IFN treatment (5 MU/TIW, 8 months), one patient) is on record?
**A.** 74 pg/mL

**Q.** What about the “virological response / HBV replication” value (during treatment, one patient (IFN 5 MU/TIW; lamivudine 150 mg/day; lamivudine plus IFN 9 MU/TIW)) of the same substance?
**A.** did not show an ALT (alanine amino-transferase) decrease or virological response
